Target: human ferroportin (Homo sapiens, UniProt Q9NP59)
Experiment: ferroportin internalization assay (inhibition of hepcidin-induced internalization of Fpn)
Conditions: read-out: Ferroportin/ IC50 μM; MDCK-FPN-HaloTag cells, 100 nM hepcidin, overnight incubation; concentration range from 0.04 to 40 μM
Description: The hepcidin-antagonistic action of the sulfonaminoquinoline compounds of the present invention was determined by means of the “ferroportin internalization assay” described in the following.
Organic compounds of low molecular weight which counteract the biological actions of hepcidin on its receptor, the iron exporter ferroportin (Fpn), were identified on the basis of their ability to inhibit hepcidin-induced internalization of Fpn in living cells. For this purpose, a stable cell line (Madin-Darby canine kidney, MDCK) was produced which constitutively expresses human ferroportin fused recombinantly at its C terminus with a fluorescent reporter protein (HaloTag®, Promega Corp.). The internalization of Fpn was monitored by labelling these cells with fluorescent ligands (HaloTag®-TMR, tetramethylrhodamine) which join covalently on to the HaloTag reporter gene fused with the Fpn. […] Optimized image analysis algorithms were used to ascertain the cell surface and to quantify the corresponding membrane fluorescence associated with the Fpn-HaloTag fusion protein. This assay allows a quantitative image-based analysis in order to quickly evaluate compounds which can block hepcidin-induced internalization of Fpn. […]

Amino acid sequences for entries named in this document (tags omitted).
UniProt Q9NP59, whole entry: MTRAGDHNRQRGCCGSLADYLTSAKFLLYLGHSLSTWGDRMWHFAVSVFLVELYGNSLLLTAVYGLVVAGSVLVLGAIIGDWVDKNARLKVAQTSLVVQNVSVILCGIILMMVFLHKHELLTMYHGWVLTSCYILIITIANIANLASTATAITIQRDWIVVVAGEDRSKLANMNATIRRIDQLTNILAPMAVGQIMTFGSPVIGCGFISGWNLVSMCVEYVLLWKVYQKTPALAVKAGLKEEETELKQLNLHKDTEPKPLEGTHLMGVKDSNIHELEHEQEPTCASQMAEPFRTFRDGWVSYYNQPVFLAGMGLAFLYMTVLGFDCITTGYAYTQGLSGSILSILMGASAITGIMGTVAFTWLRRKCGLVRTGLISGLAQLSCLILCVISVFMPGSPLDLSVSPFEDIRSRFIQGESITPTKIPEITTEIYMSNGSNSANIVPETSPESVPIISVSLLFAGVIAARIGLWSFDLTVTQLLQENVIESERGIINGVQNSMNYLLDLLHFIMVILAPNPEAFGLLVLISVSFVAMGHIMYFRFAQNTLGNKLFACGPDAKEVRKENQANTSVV

IC50: 6.8 µM
Compound: O=S(=O)(Nc1cccc2ccccc12)c1ccc(Br)s1
